Laboratory results: US20240190851A1, “FURAN FUSED RING-SUBSTITUTED GLUTARIMIDE COMPOUND” (MEDSHINE DISCOVERY INC., priority 2021, published 2024)

Protein sequences, listed by entry. Tags and fused reporters are not part of them.
UniProt P10275, whole entry T878A: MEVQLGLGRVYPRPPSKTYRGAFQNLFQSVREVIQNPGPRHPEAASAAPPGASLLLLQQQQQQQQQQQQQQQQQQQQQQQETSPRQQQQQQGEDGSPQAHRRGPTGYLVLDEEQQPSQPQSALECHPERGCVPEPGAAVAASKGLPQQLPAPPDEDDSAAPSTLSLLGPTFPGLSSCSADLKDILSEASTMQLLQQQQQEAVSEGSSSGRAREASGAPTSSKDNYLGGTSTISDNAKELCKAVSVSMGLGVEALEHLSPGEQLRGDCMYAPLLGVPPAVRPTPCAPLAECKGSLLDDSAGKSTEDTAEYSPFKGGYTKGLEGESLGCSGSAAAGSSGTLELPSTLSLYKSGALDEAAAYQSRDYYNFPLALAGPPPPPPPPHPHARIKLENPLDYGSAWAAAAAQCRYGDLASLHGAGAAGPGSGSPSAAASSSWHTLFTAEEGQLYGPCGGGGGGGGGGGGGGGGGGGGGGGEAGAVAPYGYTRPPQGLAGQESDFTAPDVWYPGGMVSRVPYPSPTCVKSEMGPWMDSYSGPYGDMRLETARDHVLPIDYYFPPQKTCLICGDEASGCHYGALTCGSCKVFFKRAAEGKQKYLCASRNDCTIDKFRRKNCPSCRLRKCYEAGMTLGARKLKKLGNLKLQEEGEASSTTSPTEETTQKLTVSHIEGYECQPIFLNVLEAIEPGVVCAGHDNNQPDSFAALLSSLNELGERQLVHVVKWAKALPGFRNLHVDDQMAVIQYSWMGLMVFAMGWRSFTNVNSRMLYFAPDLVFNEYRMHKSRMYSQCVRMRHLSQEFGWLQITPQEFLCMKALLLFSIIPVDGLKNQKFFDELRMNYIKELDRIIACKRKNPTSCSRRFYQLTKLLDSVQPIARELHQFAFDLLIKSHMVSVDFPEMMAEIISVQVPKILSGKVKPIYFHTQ

Columns and labels:
androgen receptor AR = androgen receptor AR (Homo sapiens, UniProt P10275, T878A); test: AR degradation in LNCaP cells by ICW method; settings: 24 hours
Method: Experimental purpose: To test the degradation effect of compounds on androgen receptor AR in LNCaP cells by ICW method.
Day 1 • 1. The cell culture medium, 0.025% trypsin, and phosphate buffered saline were preheated in a 37° C. water bath. • 2. Cells digested by trypsin were centrifuged at 1000 rpm for 5 minutes. The supernatant was discarded, and then the cells were resuspended in fresh culture medium. • 3. The cells were inoculated in a COL-Coated CellCarrier-384 plate at a density of 4 k/[…]/well. • 4. The 384 cell plate inoculated with cells was placed in an ultra-clean bench for 10 minutes. • 5. The cell plate was cultured overnight in a CO2 cell incubator.
Day 2 • 1. The compound at a concentration of 10 mM was diluted to 3 mM (3 μL+7 μL of dimethyl sulfoxide) before serial dilution. • 2. The compound was serially diluted 3-fold (4 μL+8 μL) in an Echo plate using Bravo. • 3. ZPE and HPE control wells were setup, and the ZPE control wells were dimethyl sulfoxide. • 4. The Echo plate was centrifuged at 1000 rpm for 1 minute, and then the diluted compound was transferred from the Echo plate to an intermediate plate using Echo with 200 nL/well. • 5. To the intermediate plate was added the cell culture medium using Multidrop combi with […]. • 6. The intermediate plate was shaken on a horizontal shaker for 1 minute to mix the compound well with the culture medium. • 7. The compound was transferred from the intermediate dilution plate to the cell plate using Bravo with 4 μL/well. • 8. The cell plate was shaken on the horizontal shaker for 1 minute, and centrifuged at 800 rpm for 30 seconds. • 9. The cell plate was returned to the CO2 incubator, and cultured for another 24 hours.
Day 3 • 1. 4% paraformaldehyde was removed from the refrigerator and brought to room temperature. • 2. The cell plate was removed from the incubator. • 3. To the cell plate was directly added 4% paraformaldehyde with 40 μL/well. • 4. The plate was incubated at room temperature for 20 minutes. • 5. The culture medium was manually shaken off from the cell plate, inverted in a centrifuge, and centrifuged at 800 rpm for 7 seconds to fully remove the residual culture medium. • 6. To the cell plate was added 4% paraformaldehyde with 25 μL/well. • 7. The plate was incubated at room temperature for 30 minutes. • 8. The paraformaldehyde solution was manually shaken off from the cell plate, inverted in the centrifuge, and centrifuged at 800 rpm for 7 seconds. • 9. 0.1% Trition was added with 25 μL/well. • 10. The plate was incubated at room temperature for 10 minutes. • 11. The 0.1% Trition solution was manually shaken off from the cell plate, inverted in the centrifuge, and centrifuged at 800 rpm for 7 seconds. • 12. Intercept® (PBS) blocking buffer was added with 25 μL/well. • 13. […]

[1] = Pharmacokinetic evaluation in Beagles
Method: In this study, Beagles were selected as experimental animals for the test compounds, and LCMS/MS method was used to quantify plasma concentrations of the test compound and the reference compound intravenously injected or orally administered to Beagles at different time points, so as to evaluate the pharmacokinetic profile of the test drug in Beagles.
Beagles (male, Jiangsu Yadong Institute of Experimental Animals Co., Ltd.).
A clarified solution or suspension of the test compound was injected into Beagles via the tail vein (normal feeding), or intragastrically administered to Beagles (normal feeding). For intravenous injection, blood was collected via the forelimb vein puncture at 0 h (pre-administration), 0.25 h, 0.5 h, 1 h, 2 h, 4 h, 6 h, 8 h, 24 h, and 48 h after administration, and placed in an anticoagulant tube added with EDTA-K2. The collected blood sample was placed on ice, and centrifuged to separate plasma within 1 hour (centrifugation conditions: 6000 g, 3 minutes, 2 to 8° C.). For oral administration, blood was collected via the forelimb vein puncture at 0 h (pre-administration), 0.25 h, 0.5 h, 1 h, 2 h, 4 h, 6 h, 8 h, 24 h, 48 h after administration, and placed in an anticoagulant tube added with EDTA-K2. The collected blood sample was placed on ice, and centrifuged to separate plasma within 1 hour (centrifugation conditions: 6000 g, 3 minutes, 2 to 8° C.). Plasma concentrations were determined by LC-MS/MS method, and relevant pharmacokinetic parameters were calculated using WinNonlin™ Version 8.2.0 (Pharsight, Mountain View, CA) pharmacokinetic software with non-compartmental model linear-log trapezoidal method.

[2] = intravenous injection (0.5 mg/mL)

Structure (SMILES): N#Cc1ccc(O[C@H]2CC[C@H](NC(=O)c3ccc(N4CCC(CN5CCN(c6cccc7c6ccc6occ(C8CCC(=O)NC8=O)c67)CC5)CC4)nn3)CC2)cc1Cl (single isomer, unassigned) [WX016]
- DC50 (androgen receptor AR): 14 nM
- Dmax (androgen receptor AR): 95.7%
- Area under the drug-time curve (0-last) [1, 2]: 2.641 µM·h
- Plasma clearance rate [1, 2]: 0.66 mL/min/kg
- Area under the drug-time curve (0-last) ([1]; oral administration (3 mg/mL)): 5.442 µM·h
- Bioavailability F ([1]; oral administration (3 mg/mL)): 34.3%
- Peak concentration ([1]; oral administration (3 mg/mL)): 175 nmol/L
- Time to peak concentration ([1]; oral administration (3 mg/mL)): 6 h

Structure (SMILES): N#Cc1ccc(O[C@H]2CC[C@H](NC(=O)c3ccc(N4CCC(CN5CCN(c6cccc7c6ccc6occ(C8CCC(=O)NC8=O)c67)CC5)CC4)nn3)CC2)cc1Cl (single isomer, unassigned) [WX017]
- DC50 (androgen receptor AR): 15.1 nM
- Dmax (androgen receptor AR): 100%
- Area under the drug-time curve (0-last) [1, 2]: 1.713 µM·h
- Plasma clearance rate [1, 2]: 5.3 mL/min/kg
- Area under the drug-time curve (0-last) ([1]; oral administration (3 mg/mL)): 4.808 µM·h
- Bioavailability F ([1]; oral administration (3 mg/mL)): 46.8%
- Peak concentration ([1]; oral administration (3 mg/mL)): 178 nmol/L
- Time to peak concentration ([1]; oral administration (3 mg/mL)): 4.67 h
